Values quoted from earlier work as cited in article PMC6718736, “Validation of in vitro methods for human cytochrome P450 enzyme induction: Outcome of a multi-laboratory study” (Toxicology in Vitro, 2019).

Tested on: CYP
Conditions: CYP isoforms induced; ref Abadie et al. (2009), Richert et al. (2010), Preissner et al. (2010), Hoffmann et al. (2014); cited from earlier work

For `CO[C@H]1/C=C/O[C@@]2(C)Oc3c(C)c(O)c4c(O)c(c(/C=N/N5CCN(C)CC5)c(O)c4c3C2=O)NC(=O)/C(C)=C\C=C\[C@H](C)[C@H](O)[C@@H](C)[C@@H](O)[C@@H](C)[C@H](OC(C)=O)[C@@H]1C` [Rifampicin], the “CYP induction in vitro (human hepatocytes)” value is listed as “CYP1A2, CYP2B6, CYP3A4”.
